Data reported in PubChem BioAssay AID504894 (National Center for Advancing Translational Sciences (NCATS), 2011).
The entries are a selection whose mix differs from that of the whole data set. Some of these compounds have results that are not shown, active ones among them. The source made the active and inactive calls. Calls follow the shape of the dose curve; as a rule, active = well fitted activation curve with a large enough effect; inconclusive = small, poorly fitted or top-dose-only effect, or another doubt; inactive = no such curve, though single readings can be large or run the other way.

Assay: Activators of T cell receptors: qHTS campaign; also: % of control where 0% means no effect
Settings: primary human leukocytes, anti-CD3, IL-2 HTRF, 48 h; at 9.22 µM unless noted
Excerpt: Normally activation of naive T cells requires two signals. 1. A signal through the T cell receptor (TCR) which provides antigen specificity to the response. 2. Signals through co-stimulatory molecules, which are necessary for proliferation, survival and cytokine production. In the absence of co-stimulatory signals T cells are not effectively activated, and may even be rendered anergic or unresponsive to subsequent signaling. This lack of costimulation has been shown in multiple model systems to be a major factor in the limited strength and effectiveness of anti-tumor T cell responses. The goal of this project is to identify small molecule compounds that will stimulate T cell activation in the presence of TCR signaling but in the absence of co-stimulatory signals, thereby allowing activation of naive T cells in the absence of co-stimulation. Identification of such compounds would have clear experimental and clinical applications in instances where desirable antigen-specific immune responses are not generated due to a lack of co-stimulation, for example in the generation of anti-tumor responses. In collaboration between the National Cancer Institute and NIH Chemical Genomics Center, a high-throughput amenable screen was developed to discover small molecules that co-stimulate and activate human T cell receptors. The screen will be carried out using a novel homogeneous time resolved fluorescence energy transfer (HTRF) assay to measure production of the cytokine IL-2 by activated T cells and will be tested against the NIH Molecular Libraries Small Molecule Repository (MLSMR). NIH Chemical Genomics Center [NCGC] NIH Molecular Libraries Probe Centers Network [MLPCN] MLPCN Grant: MH090820-01 Assay Submitter (PI): Richard Hodes, National Cancer Institute, NIH
Primary human leukocytes are incubated with a-CD3 beads and compounds for 48 hr. The amount of secreted IL-2 is then assayed with a HTRF IL-2 kit. The presence of IL-2 cytokine captures the detection reagents and brings the a-IL-2-K and a-IL-2-d2 into close proximity. Upon excitation with 320nm light, the europium cryptate is capable of transferring energy to acceptor molecules within close proximity, resulting in acceptor molecule emission at 665nm.

Compound	activation of IL-2 secretion
COc1ccc(Br)c(C(=O)NCC2(N3CCCCC3)CCCCC2)c1	inactive: -1.95%
CN(C)c1cccc(C(=O)NCC2(N(C)C)CCCCC2)c1	inactive: 0.125%
O=C(OCCN1CCCC1)C(O)(c1ccccc1)c1ccccc1	inactive: -7%
CC(C)Oc1ccc(C(=O)NCC2(N(C)C)CCCCC2)cc1	inactive: 2.44%
O=C(OC1CN2CCC1CC2)C(CO)(c1ccccc1)c1ccccc1 (stereo not given)	inactive: -4.05%
COc1ccc(Cl)cc1C(=O)NCC1(N(C)C)CCCCC1	inactive: -7.16%
COc1cccc(C(=O)NCC2(N3CCCCC3)CCCCC2)c1	inactive: 1.42%
O=C(NCC1(N2CCCCC2)CCCCC1)c1cccc(Cl)c1	inactive: -1.19%
CN(C)C1(CNC(=O)c2ccc(Br)cc2)CCCCC1	inactive: 2.65%
COc1cc(C(=O)NCC2(N(C)C)CCCCC2)c([N+](=O)[O-])cc1OC	inactive: -2.79%
O=C(NCC1(N2CCCCC2)CCCCC1)c1cc(F)c(F)cc1Cl	inactive: 3.3%
C=CCN1CCN(CCOC(=O)C(O)(c2ccccc2)c2ccccc2)CC1	inactive: 7.72%
O=C(NCC1(N2CCCCC2)CCCCC1)c1cccc(Br)c1	inactive: -3.85%
CCN1CCCC(OC(=O)C2(O)c3ccccc3C=Cc3ccccc32)C1 (stereo not given)	inactive: -4.57% [at 46.1 µM]
Cc1cc(C(=O)NCC2(N3CCCCC3)CCCCC2)ccc1[N+](=O)[O-]	inactive: 1.23%
COc1ccc(C(=O)NCC2(N(C)C)CCCCC2)cc1	inactive: -4.04%
CN(C)c1ccc(C(=O)NCC2(N(C)C)CCCCC2)cc1	inactive: 0.724%
CN(C)C1CCCC1OC(=O)C(O)(c1ccccc1)c1ccccc1 (stereo not given)	inactive: -7.59% [at 46.1 µM]
Cc1ccccc1C(=O)NCC1(N2CCCCC2)CCCCC1	inactive: -5.52%
CC(C)N1C(=O)CC2(CCN(CCOC(=O)C(O)(c3ccccc3)c3ccccc3)CC2)C1=O	inactive: -1.12%
COc1cc(SC)ccc1C(=O)NCC1(N(C)C)CCCCC1	inactive: 4.05%
CCN(CC)CC(C)C(C)OC(=O)C(O)(c1ccccc1)c1ccccc1 (stereo not given)	inactive: -2.57%
Cc1ccc(C(=O)NCC2(N3CCCCC3)CCCCC2)cc1	inactive: -3.58%
O=C(NCC1(N2CCCCC2)CCCCC1)c1cc([N+](=O)[O-])ccc1Cl	inactive: 6.77%
CN1[C@@H]2CC[C@H]1CC(OC(=O)C(O)(c1ccccc1)c1ccccc1)C2 (stereo not given in full)	inactive: -0.41%
